Molecular target: PI3Kα (Homo sapiens (Human), UniProt P42336)
Conditions: read-out: PI3Kα AlphaScreen ® Ki

By UniProt entry, the sequences of proteins in these tests, tags left out.
UniProt P42336, whole entry: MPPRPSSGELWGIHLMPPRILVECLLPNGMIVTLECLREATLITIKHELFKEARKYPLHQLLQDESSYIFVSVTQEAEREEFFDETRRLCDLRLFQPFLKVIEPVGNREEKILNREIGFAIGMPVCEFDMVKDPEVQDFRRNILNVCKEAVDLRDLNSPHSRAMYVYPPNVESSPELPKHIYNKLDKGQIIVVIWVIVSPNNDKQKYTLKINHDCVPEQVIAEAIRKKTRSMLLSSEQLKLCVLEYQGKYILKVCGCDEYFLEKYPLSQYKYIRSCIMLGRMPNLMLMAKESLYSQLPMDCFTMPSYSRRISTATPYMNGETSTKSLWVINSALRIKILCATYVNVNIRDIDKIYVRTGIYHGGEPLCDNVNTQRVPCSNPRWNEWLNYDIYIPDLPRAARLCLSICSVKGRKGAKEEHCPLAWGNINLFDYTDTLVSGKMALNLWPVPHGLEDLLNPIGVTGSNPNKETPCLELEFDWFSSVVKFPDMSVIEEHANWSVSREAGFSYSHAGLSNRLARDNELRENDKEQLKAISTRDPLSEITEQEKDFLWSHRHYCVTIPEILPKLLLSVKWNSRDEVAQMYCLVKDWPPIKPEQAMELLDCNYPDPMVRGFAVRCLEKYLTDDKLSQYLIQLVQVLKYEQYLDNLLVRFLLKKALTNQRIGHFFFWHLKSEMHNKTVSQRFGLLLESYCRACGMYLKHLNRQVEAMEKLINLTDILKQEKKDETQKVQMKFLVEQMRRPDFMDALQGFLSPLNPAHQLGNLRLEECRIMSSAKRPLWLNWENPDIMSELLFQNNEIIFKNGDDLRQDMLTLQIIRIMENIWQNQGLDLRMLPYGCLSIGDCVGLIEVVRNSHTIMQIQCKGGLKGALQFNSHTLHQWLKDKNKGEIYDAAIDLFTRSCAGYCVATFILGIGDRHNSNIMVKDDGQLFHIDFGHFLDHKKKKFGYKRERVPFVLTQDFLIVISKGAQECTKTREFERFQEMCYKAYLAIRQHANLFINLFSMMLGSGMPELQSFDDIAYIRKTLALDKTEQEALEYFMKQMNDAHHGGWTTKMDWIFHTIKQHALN

Structure (SMILES) | Ki
COc1ccc(Nc2ncc(CNc3cccnc3)cc2-c2nc(C)nc3[nH]cnc23)cn1 [Example 79, N-(6-methoxypyridin-3-yl)-3-(2-methyl-9H-purin-6-yl)-5-((pyridin-3-ylamino)methyl)pyridin-2-amine] | 9 nM
COc1ncc(Nc2ncc(C(C)N3CCN(S(C)(=O)=O)CC3)cc2-c2nc(C)nc(N)n2)cc1F (stereo not shown) [Example 143, 4-(2-(5-fluoro-6-methoxypyridin-3-ylamino)-5-(1-(4-(methylsulfonyl)piperazin-1-yl)ethyl)pyridin-3-yl)-6-methyl-1,3,5-triazin-2-amine] | 2 nM
COc1ncc(Nc2ncc([C@H](C)N3CCN(S(C)(=O)=O)CC3)cc2-c2nc(C)nc(N)n2)cc1F [Example 147, (S)-4-(2-(5-Fluoro-6-Methoxypyridin-3-Ylamino)-5-(1-(4-(Methylsulfonyl)Piperazin-1-yl)Ethyl)Pyridin-3-yl)-6-Methyl-1,3,5-Triazin-2-Amine] | 4 nM
COc1ncc(Nc2ncc([C@@H](C)N3CCN(S(C)(=O)=O)CC3)cc2-c2nc(C)nc(N)n2)cc1F [Example 148, (R)-4-(2-(5-Fluoro-6-Methoxypyridin-3-Ylamino)-5-(1-(4-(Methylsulfonyl)Piperazin-1-yl)Ethyl)Pyridin-3-yl)-6-Methyl-1,3,5-Triazin-2-Amine] | 4 nM

From patent US8772480B2, “Inhibitors of PI3 kinase and/or mTOR” (priority 2009, dated 2014)
